Results: patent US7687538B2 (priority 2004, dated 2010)

Chains of the proteins cited; added tags and fusions are not shown. Lines headed by an entry give the natural chain unless they say otherwise; changes in a name come on top.
UniProt P41145: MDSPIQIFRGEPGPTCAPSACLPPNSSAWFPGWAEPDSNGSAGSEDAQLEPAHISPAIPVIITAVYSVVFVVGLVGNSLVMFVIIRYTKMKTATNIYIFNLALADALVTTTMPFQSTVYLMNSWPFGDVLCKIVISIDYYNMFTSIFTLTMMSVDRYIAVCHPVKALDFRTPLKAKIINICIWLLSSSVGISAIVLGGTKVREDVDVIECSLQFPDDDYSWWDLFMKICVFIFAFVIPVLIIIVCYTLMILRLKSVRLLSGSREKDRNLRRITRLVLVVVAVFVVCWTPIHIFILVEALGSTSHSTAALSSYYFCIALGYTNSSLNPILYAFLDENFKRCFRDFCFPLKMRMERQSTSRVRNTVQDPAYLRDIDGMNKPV

Molecular target: κ-opioid receptor (KOR) (Homo sapiens, UniProt P41145)
Experiment: biochemical
Type: binding

## COC(=O)[C@@H]1C[C@H](O)C(=O)[C@H]2[C@@]1(C)CC[C@H]1C(=O)O[C@H](c3ccoc3)C[C@]21C [Salvinorin B]
  Ki: > 10 µM
